In patent publication US5595763A (priority 1995, dated 1997):

Tested on: male Wistar rats

Substance: sodium vanadate [reference compound]
- symptoms at high doses (high doses, tungstate up to 8000 mg/kg): diarrhea, convulsions, and blood in the feces
- LD50 (oral (intragastric) single dose, Wistar rats, ten days, method of Horn, 14400 min): 98 mg/kg
